In the experiment the target is T1, Human thrombin (Homo sapiens, UniProt P00734).
T1 construct: Human thrombin (8.3 mg/ml) was obtained from Hematologic Technologies Inc; purchased Hematologic Technologies Inc. (Essex Junction, VT, USA)
The experiment is described as follows: Thrombin induced hydrolysis of specific substrates in buffer system. It is filed as biochemical. Conditions: chromogenic substrate Tosyl-Gly-Pro-Arg-p-nitroanilide; calculated assuming competitive inhibition, KM 9.44 µM. Here is the method:
The kinetics of thrombin inhibition was determined from the hydrolysis reaction of a specific substrate by thrombin in the presence of the tested substances. The chromogenic substrate (Tosyl-Gly-Pro-Arg-p-nitroanilide) or fast fluorogenic substrate (BOC-Ala-Pro-Arg-AMC) was used.
Plate wells were filled with 20 mM HEPES (pH 8.0) containing 140 mM NaCl and 0.1% polyethylene glycol (molecular weight 6000 Da). Thereafter, substrate was sequentially added to each well (final concentration, 100 µM), followed by the substance being tested (to a final concentration that was varied) and thrombin (final concentration, 0.2 nM). The hydrolysis rate was monitored spectrophotometrically at 405 nm (absorption maximum of the reaction product – p-nitroaniline), or fluorometrically (λex = 380 nm; λem = 440 nm for fluorescent reaction product 7-amino-4-methylcoumarine).
The initial rate was determined as the slope of the linear portion of the kinetic curve over the first 10 to 20 min of measurement. The inhibitory effect was expressed as the percentage reduction of the initial hydrolysis rate. The reaction rate in the absence of inhibitor was taken as 100%. Each result is the mean of two parallel determinations.
The inhibitor concentration was determined decreasing hydrolysis rate to 50% (IC50). […]

In article PMC3095642, “New Synthetic Thrombin Inhibitors: Molecular Design and Experimental Verification” (PLoS ONE, 2011) one finds Ki data, which are given here for one compound.

Broadly, the Ki is a measure of affinity in units of concentration, obtained from inhibition or displacement.

As for `CC1CNc2c(cccc2S(=O)(=O)N[C@@H](CCCNC(=N)N)C(=O)N2CC[C@@H](C)C[C@@H]2C(=O)O)C1` (stereo partly shown) [Argatroban, reference compound], the inhibitory constant (Ki) was 39 nM.
